This passage reports fluorescence results from PubChem BioAssay AID1480 (NMMLSC, 2009).

A short description of this experiment: green-channel fluorescence of compounds in IgMXP3 cells – cell-based, 488/530 nm, flow cytometry, artefact control for ABC transporter inhibitor project, confirmation (AID 1480). Particulars: compound autofluorescence 488/530 nm, at 6.6 µM, active compounds read high. A digest of the protocol: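 Material: ABCG2-expressing drug-resistant IgMXP3 cells | Input: 3 million cells/mL final | Medium: JC-1 kit assay buffer | Probe or stimulus: no JC-1 substrate | Times: Cell–compound exposure 10 min, 25 °C, end-over-end rotation | Measured by: High-throughput flow cytometry, green FL1 channel fluorescence | Evaluation: Compound-well median cell fluorescence minus DMSO-well median fluorescence | Benchmarks: DMSO-only wells as cell background reference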

The entries are a selection whose mix differs from that of the whole data set. Some tests of the compounds listed are not included; inactive here does not mean inactive elsewhere. Activity calls are given as the source filed them.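 The calls were made as follows: active = fluorescence in ABCG2-expressing cells above the plate's control-well mean plus 3 SD (cut at about 15 in these data); inactive = the rest.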

`CN(C)c1cccc(C(=O)NCC2(N(C)C)CCCCC2)c1`: the fluorescence was inactive: -1.19.
